“Also recorded” adds a separate entry of the source.
Target: T1, mushroom tyrosinase (Agaricus bisporus, UniProt C7FF04)
T1 construct: purchased Sigma-Aldrich
Assay: biochemical
Type: biochemical

Amino acid sequences for entries named in this document (tags omitted). Residues count along the entry.
UniProt C7FF04, 1-392: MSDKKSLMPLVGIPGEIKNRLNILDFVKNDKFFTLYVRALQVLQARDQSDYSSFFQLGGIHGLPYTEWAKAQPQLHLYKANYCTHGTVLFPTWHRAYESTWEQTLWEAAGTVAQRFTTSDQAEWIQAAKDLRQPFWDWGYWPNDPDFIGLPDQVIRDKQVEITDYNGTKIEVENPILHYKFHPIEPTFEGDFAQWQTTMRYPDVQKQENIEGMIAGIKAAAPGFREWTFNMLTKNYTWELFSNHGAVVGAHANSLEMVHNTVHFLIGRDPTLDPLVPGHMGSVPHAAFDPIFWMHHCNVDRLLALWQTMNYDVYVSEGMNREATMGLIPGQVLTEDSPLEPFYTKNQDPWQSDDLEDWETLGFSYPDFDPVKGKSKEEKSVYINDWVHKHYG

O=C(/C=C/c1ccc(O)cc1O)c1ccco1 [Compound 8, (E)-3-(2,4-Dihydroxyphenyl)-1-(furan-2-yl)prop-2-en-1-one]
inhibition type: mixed-type inhibition; also recorded: mixed inhibition type

Source: publication PMC7700175, “(E)-1-(Furan-2-yl)-(substituted phenyl)prop-2-en-1-one Derivatives as Tyrosinase Inhibitors and Melanogenesis Inhibition: An In Vitro and In Silico Study” (Molecules, 2020)
